The Ki is the dissociation constant of the complex between target and ligand, obtained from inhibition or displacement.

Our source for the Ki values is ChEMBL document CHEMBL4265962, “Pyrrolidine nucleoside bisphosphonates as antituberculosis agents targeting hypoxanthine-guanine phosphoribosyltransferase” (Eur J Med Chem, 2018).

The target in this experiment is T1, Hypoxanthine-guanine phosphoribosyltransferase (Homo sapiens, UniProt P00492).
T1 sequence (P00492 whole entry): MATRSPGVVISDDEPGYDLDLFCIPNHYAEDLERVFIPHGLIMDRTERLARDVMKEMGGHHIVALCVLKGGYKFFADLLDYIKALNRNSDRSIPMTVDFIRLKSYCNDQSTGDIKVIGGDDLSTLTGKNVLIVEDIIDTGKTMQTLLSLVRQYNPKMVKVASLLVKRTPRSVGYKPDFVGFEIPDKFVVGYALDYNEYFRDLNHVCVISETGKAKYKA
Nature of the experiment: Inhibition of human HGPRT using fixed concentration of guanine and variable concentrations of PRib-PP as substrate by spectrophotometric analysis.

On to `O=C(CCP(=O)(O)O)N1C[C@@H](n2cnc3c(O)ncnc32)[C@H](OC[C@@H](O)P(=O)(O)O)C1`, for which the Ki was 1 nM.
For `O=C(CCP(=O)(O)O)N1C[C@@H](n2cnc3c(O)ncnc32)[C@H](OC[C@H](O)P(=O)(O)O)C1` the value was 8 nM.
